For one compound, IC50 results are on record in BindingDB's records for doi:10.1021/acs.jmedchem.8b01296 (Daegu-Gyeongbuk Medical Innovation Foundation, 2019).

The pIC50 is the negative decadic logarithm of the IC50, by convention in mol/L.

pIC50: −log10 of the molar value.

The target of the test is T1, Steroid hormone receptor ERR2 (Homo sapiens, UniProt O95718).
T1 sequence (O95718 whole entry): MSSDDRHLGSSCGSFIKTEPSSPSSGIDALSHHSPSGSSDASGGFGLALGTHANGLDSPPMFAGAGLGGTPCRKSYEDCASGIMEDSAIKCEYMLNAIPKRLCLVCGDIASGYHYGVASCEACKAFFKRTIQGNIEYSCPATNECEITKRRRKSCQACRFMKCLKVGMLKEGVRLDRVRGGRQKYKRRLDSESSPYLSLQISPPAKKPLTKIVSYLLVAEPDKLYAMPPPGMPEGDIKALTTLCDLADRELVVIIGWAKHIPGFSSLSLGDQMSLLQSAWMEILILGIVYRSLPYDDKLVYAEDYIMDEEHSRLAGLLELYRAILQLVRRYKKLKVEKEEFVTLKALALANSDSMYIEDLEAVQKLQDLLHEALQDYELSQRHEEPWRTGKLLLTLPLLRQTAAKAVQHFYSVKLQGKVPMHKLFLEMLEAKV
As to the kind of experiment: Binding affinity to ERRbeta (unknown origin) using fluorescein-conjugated coactivator PGC-1alpha incubated for 1 hr by TR-FRET assay. (In general: Time-resolved FRET reads energy transfer from a long-lived donor to a nearby acceptor.)

The compound `CN(C)CCOc1ccc(/C(=C(/CCCO)c2ccccc2)c2ccc(O)cc2)cc1` [4-[(1Z)-1-{4-[2-(dimethylamino)ethoxy]phenyl}-5-hydroxy-2-phenylpent-1-en-1-yl]phenol] showed a pIC50 of under 5.00.
